In PubChem BioAssay AID588855 (National Center for Advancing Translational Sciences (NCATS), 2011) one finds activity, negative = inhibition data, which are given here for 37 compounds.

Values joined by “and” are separate entries in the source; they are usually repeats but may differ in a detail not shown here. Equal values may be shown once. The list shows a part of the results, in another mix than the full data. Some results for these compounds are left out of this collection, so the calls shown say nothing about other tests. Records with an inconclusive call do not appear. Active and inactive are the calls of the source. Calls follow the shape of the dose curve; as a rule, active = well fitted inhibition curve with a large enough effect; inconclusive = small, poorly fitted or top-dose-only effect; inactive = no such curve, though single readings can be large or run the other way.
% is scaled to controls: 0 for no effect and ±100 for the full control effect.

This assay can be described thus: qHTS for Inhibitors of TGF-b. Also: nearly all actives have a fitted effect of over 65% in size. Conditions: HepG2 CAGA-GFP TGF-b/SMAD3 reporter, GFP fluorescence, 18 h, TGF-beta stimulated, 500 pg/mL final; at 46.1 µM (top of the series). On the technique in general: qHTS replaces the single test concentration by a dilution series.
In the case of `COc1cc(C(=O)NCC2(N(C)C)CCCCC2)c([N+](=O)[O-])cc1OC`, the activity, negative = inhibition was inactive: 0.0518%.
Next, `CN(C)C1(CNC(=O)c2ccc(Br)cc2)CCCCC1`: inactive: 5.45%; `O=C(CBr)c1ccc(Cl)cc1`: inactive: -11%; `O=C(NCC1(N2CCCCC2)CCCCC1)c1cccc(Cl)c1`: inactive: 0.0902%.
Regarding `COc1ccc(C(=O)NCC2(N(C)C)CCCCC2)cc1Cl`, the activity, negative = inhibition was inactive: 17.1%.
For `COc1ccc(Cl)cc1C(=O)NCC1(N(C)C)CCCCC1`, the activity, negative = inhibition was inactive: -25.5%.
The figure for `COc1cccc(C(=O)NCC2(N3CCCCC3)CCCCC2)c1` is inactive: -4.63%.
The figure for `CC(C)COc1ccc(C(=O)NCC2(N(C)C)CCCCC2)cc1` is inactive: 6.1%; for `O=C(OC1CN2CCC1CC2)C(CO)(c1ccccc1)c1ccccc1` (configuration not stated) it is inactive: 15.1%.
The figure for `COc1cccc(C(=O)NCC2(N3CCOCC3)CCCCC2)c1` is inactive: 3.55%; for `CN(C)c1cccc(C(=O)NCC2(N(C)C)CCCCC2)c1` it is inactive: 1.77%; for `O=C(OCCN1CCCC1)C(O)(c1ccccc1)c1ccccc1` it is inactive: 0.0819%.
Consider `CC(C)Oc1ccc(C(=O)NCC2(N(C)C)CCCCC2)cc1`, for which the activity, negative = inhibition is inactive: 22.4% and inactive: -0.945%.
In the case of `COc1ccc(Br)c(C(=O)NCC2(N3CCCCC3)CCCCC2)c1`, the activity, negative = inhibition was inactive: -24.4%.
Next, `COc1cc(C(=O)NCC2(N(C)C)CCCCC2)cc(OC)c1OC`: inactive: 2.85%; `Cc1cccc(C(=O)NCC2(N(C)C)CCCCC2)c1`: inactive: 5.73%; `C=C(C)C#CC(O)(C(=O)OC1CCN(C)CC1)c1ccccc1` (configuration not stated): inactive: 0.691%.
The figure for `CN1[C@@H]2CC[C@H]1CC(OC(=O)C(O)(c1ccccc1)c1ccccc1)C2` (some centres not stated) is inactive: 8.48%.
Next, `O=C(NCC1(N2CCCCC2)CCCCC1)c1cc([N+](=O)[O-])ccc1Cl`: inactive: 0.522%; `CN(C)C1(CNC(=O)c2ccccc2F)CCCCC1`: inactive: 6.32%; `Cc1ccc(C(=O)NCC2(N3CCCCC3)CCCCC2)cc1`: inactive: -11.9%.
In the case of `CC(C)N1C(=O)CC2(CCN(CCOC(=O)C(O)(c3ccccc3)c3ccccc3)CC2)C1=O`, the activity, negative = inhibition was inactive: 3.53%.
The figure for `COc1cc(SC)ccc1C(=O)NCC1(N(C)C)CCCCC1` is inactive: 4.09%; for `CCN(CC)CC(C)C(C)OC(=O)C(O)(c1ccccc1)c1ccccc1` (configuration not stated) it is inactive: -0.605%.
As for `CN(C)C1(CNC(=O)c2cccc(Cl)c2)CCCCC1`, the activity, negative = inhibition is inactive: -22%.
Take `CCCCOc1ccccc1C(=O)NCC1(N(C)C)CCCCC1`: the activity, negative = inhibition was inactive: 2.65%.
As for `CN(C)C1CCCC1OC(=O)C(O)(c1ccccc1)c1ccccc1` (configuration not stated), the activity, negative = inhibition was inactive: 14.4%.
With `CN(C)c1ccc(C(=O)NCC2(N(C)C)CCCCC2)cc1`, the activity, negative = inhibition was inactive: 6.39%.
The figure for `CN(C)C1(CNC(=O)c2ccccc2[N+](=O)[O-])CCCCC1` is inactive: 23.3%; for `Cc1ccccc1C(=O)NCC1(N2CCCCC2)CCCCC1` it is inactive: 16.9%.
For `O=C(NCC1(N2CCCCC2)CCCCC1)c1cccc(Br)c1`, the activity, negative = inhibition was inactive: 3.81%.
Next, `Cc1cc(C(=O)NCC2(N3CCCCC3)CCCCC2)ccc1[N+](=O)[O-]`: inactive: 5.87%; `CCN1CCCC(OC(=O)C2(O)c3ccccc3C=Cc3ccccc32)C1` (configuration not stated): inactive: -9.9%.
The figure for `CCOc1cccc(C(=O)NCC2(N(C)C)CCCCC2)c1` is inactive: 26.3%.
The figure for `COc1ccc(C(=O)NCC2(N(C)C)CCCCC2)cc1` is inactive: 15.4%; for `O=C(NCC1(N2CCCCC2)CCCCC1)c1cc(F)c(F)cc1Cl` it is inactive: 1.28%.
`C=CCN1CCN(CCOC(=O)C(O)(c2ccccc2)c2ccccc2)CC1`: the activity, negative = inhibition is inactive: -2.66%.
